Conditions: spiked tomato slice extracts and juice sample

chlorite
recoveries: 0-69%
